Experimental data published in US20250221966A1, “RXFP1 AGONISTS” (BRISTOL-MYERS SQUIBB COMPANY, priority 2021, published 2025).

Molecular target: T1, human RXFP1 (Homo sapiens, UniProt Q9HBX9)
T1 construct: expressed in transfected cells
T1 sequence (Q9HBX9 1-757): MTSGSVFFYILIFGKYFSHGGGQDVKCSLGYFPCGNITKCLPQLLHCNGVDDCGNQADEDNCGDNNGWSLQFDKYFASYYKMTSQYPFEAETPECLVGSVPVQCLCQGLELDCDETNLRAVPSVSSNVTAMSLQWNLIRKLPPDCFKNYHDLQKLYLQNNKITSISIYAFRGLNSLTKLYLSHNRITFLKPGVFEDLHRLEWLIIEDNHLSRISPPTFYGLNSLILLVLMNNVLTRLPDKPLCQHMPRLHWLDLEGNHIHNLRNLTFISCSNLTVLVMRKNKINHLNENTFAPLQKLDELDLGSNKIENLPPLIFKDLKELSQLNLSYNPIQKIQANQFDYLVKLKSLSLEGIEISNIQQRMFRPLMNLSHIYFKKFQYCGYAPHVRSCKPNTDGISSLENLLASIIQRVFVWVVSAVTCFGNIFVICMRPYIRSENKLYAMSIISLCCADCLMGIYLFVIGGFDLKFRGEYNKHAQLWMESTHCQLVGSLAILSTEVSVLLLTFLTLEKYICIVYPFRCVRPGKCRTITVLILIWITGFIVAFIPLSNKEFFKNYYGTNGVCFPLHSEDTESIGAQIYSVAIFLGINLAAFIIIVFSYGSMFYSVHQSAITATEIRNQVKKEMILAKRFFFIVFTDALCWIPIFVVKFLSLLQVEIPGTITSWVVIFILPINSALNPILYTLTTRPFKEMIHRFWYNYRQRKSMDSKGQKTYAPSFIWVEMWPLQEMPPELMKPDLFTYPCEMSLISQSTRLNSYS
Experiment: RXFP1 cAMP assay (hRXFP1 HEK293 cAMP assay, HTRF)
Format: cell-based
Details: HEK293 cells stably expressing human RXFP1, 30 min at room temperature
Procedure: RXFP1 Cyclic Adenosine Monophosphate (cAMP) Assays. […] Cells were dissociated and suspended in assay buffer. The assay buffer was HBSS buffer (with calcium and magnesium) containing 20 mM HEPES, 0.05% BSA, and 0.5 mM IBMX. Cells (3000 cells per well, except 1500 cell per well for HEK293 cells stably expressing human RXFP1) were added to 384-well Proxiplates (Perkin-Elmer). Cells were immediately treated with test compounds in DMSO (2% final) at final concentrations in the range of 0.010 nM to 50 μM. Cells were incubated for 30 min at room temperature. The level of intracellular cAMP was determined using the HTRF HiRange cAMP assay reagent kit (Cisbio) according to manufacturer's instructions. Solutions of cryptate conjugated anti-cAMP and d2 fluorophore-labelled cAMP were made in a supplied lysis buffer separately. Upon completion of the reaction, the cells were lysed with equal volume of the d2-cAMP solution and anti-cAMP solution. […] The potency and activity of a compound to […] cAMP production was then determined by fitting to a 4-parametric logistic equation from a plot of cAMP level versus compound concentrations.

## 4-fluoro-3′-(1R,2R,3R,4R,Z)-3-((4-fluoro-3-(trifluoromethyl)phenyl)carbamoyl)-7-(2,2,2-trifluoroethylidene)bicyclo[2.2.1]heptan-2-yl)carbamoyl)-4′-methoxy-[1,1′-biphenyl]-3-carboxylic acid [Example 351]
  EC50: 2870 nM
